According to paper PMC10144572, “Targeted Metabolomics of Organophosphate Pesticides and Chemical Warfare Nerve Agent Simulants Using High- and Low-Dose Exposure in Human Liver Microsomes” (2023):

Assays:
[1] = test system: human liver microsomes (HLMs); experiment: Low-dose (LC-MS/MS) metabolism / intrinsic clearance in human liver microsomes; conditions: for % Remaining (data based on MS): percent of OP remaining after incubation, low-dose regimen; for metabolism / decay type: low dose regimen; for fast clearance rate / slower clearance rate: low-dose studies, biphasic decay; for fast clearance rate: fast phase (malathion 0.17 mM); for slower clearance rate: slow phase (malathion 0.17 mM)
[2] = 5 mM

With CCCCSP(=O)(SCCCC)SCCCC the “% Remaining (data based on MS)” value ([1]; listed as Tribufos-Fast) was 10.00%.
For COP(=S)(OC)Oc1cc(Cl)c(I)cc1Cl, the “% Remaining (data based on MS)” value ([1]; listed as IFP-Fast) was 74.31%.
With CCCCSP(SCCCC)SCCCC the “metabolism / decay type” value [1] was “biphasic” and the “% Remaining (data based on MS)” value ([1]; listed as Merphos-Fast) was 72.00%.
In the case of CCCSP(=O)(OCC)SCCC, the “Water solubility at the high concentration (NA in NMR columns)” value (from here on “Water solubility”) [2] is reported as “NA (NA for OPs that were not water soluble at the high concentration)”.
In the case of CCOP(=O)(NC(C)C)Oc1ccc(SC)c(C)c1 (stereo not drawn), the “% Remaining (data based on MS)” value [1] is reported as 50.00%.
For CCOP(=S)(OCC)ON=C(C#N)c1ccccc1Cl, the “Water solubility” value [2] was “NA (NA for OPs that were not water soluble at the high concentration)” and the “% Remaining (data based on MS)” value [1] was 20.00%.
With COP(=S)(OC)Oc1ccc(Sc2ccc(OP(=S)(OC)OC)cc2)cc1 the “% Remaining (data based on MS)” value [1] was 11.00%.
With COP(=O)(OC)O/C(=C\Cl)c1cc(Cl)c(Cl)cc1Cl the “Water solubility” value [2] was “NA (NA for OPs that were not water soluble at the high concentration)” and the “% Remaining (data based on MS)” value [1] was 60.00%.
For COP(=O)(NC(C)=O)SC (stereo not drawn), the “% Remaining (data based on MS)” value [1] was 91.90%.
For CCOP(=S)(Oc1ccc(C#N)cc1)c1ccccc1 (stereo not drawn), the “% Remaining (data based on MS)” value [1] was 20.00%.
In the case of Phosphamidon-I, the “metabolism / decay type” value [1] is reported as “monophasic”.
For CCOP(=S)(OCC)Oc1nc(Cl)c(Cl)cc1Cl, the “Water solubility” value [2] was “NA (NA for OPs that were not water soluble at the high concentration)”.
For COc1nn(CSP(=S)(OC)OC)c(=O)s1, the “% Remaining (data based on MS)” value [1] was 46.50%.
In the case of COP(=O)(OC)OC1=C(Cl)C2C=CCC12 (stereo not drawn), the “% Remaining (data based on MS)” value [1] is reported as 60.00%.
With CCOP(=S)(OCC)Oc1cnc2ccccc2n1 the “% Remaining (data based on MS)” value [1] was 15.45%.
For Phosphamidon-II, the “metabolism / decay type” value [1] was “monophasic” and the “% Remaining (data based on MS)” value [1] was 22.00%.
For CCOP(=S)(OCC)Oc1cc(C)nc(N(CC)CC)n1, the “Water solubility” value [2] was “NA (NA for OPs that were not water soluble at the high concentration)” and the “% Remaining (data based on MS)” value ([1]; listed as PPE-Fast) was 60.00%.
With CCOP(=O)(N=C1SCC(C)S1)OCC (stereo not drawn) the “% Remaining (data based on MS)” value [1] was 96.00%.
For CCOP(=O)(N=C1SCCS1)OCC, the “% Remaining (data based on MS)” value [1] was 95.00%.
For COP(=S)(OC)Oc1ccc(SC)c(C)c1, the “% Remaining (data based on MS)” value [1] was 23.00%.
In the case of CCOP(=S)(OCC)Oc1ccc(=O)n(-c2ccccc2)n1, the “% Remaining (data based on MS)” value [1] is reported as 45.00%.
For CNP(=O)(OC)Oc1ccc(C(C)(C)C)cc1Cl (stereo not drawn), the “% Remaining (data based on MS)” value [1] was 20.00%.
In the case of COP(=S)(OC)SCC(=O)N(C)C=O, the “metabolism / decay type” value [1] is reported as “biphasic”, the fast clearance rate [1] is reported as 24.56 µL/min/mg and the slower clearance rate [1] is reported as 3.50 µL/min/mg.
In the case of CCOP(=S)(OCC)Oc1cc(C)nc(C(C)C)n1, the “% Remaining (data based on MS)” value [1] is reported as 32.00%.
With Dibrom the “metabolism / decay type” value [1] was “biphasic” and the “% Remaining (data based on MS)” value ([1]; listed as Dibrom-Fast) was 23.00%.
With COP(=S)(OC)SCN1C(=O)c2ccccc2C1=O the “Water solubility” value [2] was “NA (NA for OPs that were not water soluble at the high concentration)”.
With CCOC(=O)CC(SP(=S)(OC)OC)C(=O)OCC (stereo not drawn) the fast clearance rate [1] was 2245.5 µL/min/mg, the slower clearance rate [1] was 10.09 µL/min/mg and the “% Remaining (data based on MS)” value ([1]; listed as Malathion-Fast) was 20.00%.
In the case of CC(C)OP(=O)(OC(C)C)SCc1ccccc1, the “% Remaining (data based on MS)” value [1] is reported as 79.00%.
For CCOC(=O)c1cn2nc(OP(=S)(OCC)OCC)cc2nc1C, the “% Remaining (data based on MS)” value [1] was 42.00%.
